Experiments:
[1] = molecular target: κ opiate receptor (Homo sapiens, UniProt P41145); assay: Opiate receptor binding affinity, κ; settings: read-out: Ki (nM) κ
Description: (§1) Dose response curves for N/OFQ are conducted in the presence of varying concentrations of the antagonist, Schild plots are constructed, and pA2 values determined. Test compounds are also tested for binding affinity, as well as selectivity versus the μ, δ, and κ opioid receptors, as shown in Example 8.
(§2) The compounds of the invention were evaluated for binding affinity to the μ, κ, and δ opitate receptors, in a manner similar to that in Example 6.

Protein sequences, listed by entry. Tags and fused reporters are not part of them.
UniProt P41145, whole entry: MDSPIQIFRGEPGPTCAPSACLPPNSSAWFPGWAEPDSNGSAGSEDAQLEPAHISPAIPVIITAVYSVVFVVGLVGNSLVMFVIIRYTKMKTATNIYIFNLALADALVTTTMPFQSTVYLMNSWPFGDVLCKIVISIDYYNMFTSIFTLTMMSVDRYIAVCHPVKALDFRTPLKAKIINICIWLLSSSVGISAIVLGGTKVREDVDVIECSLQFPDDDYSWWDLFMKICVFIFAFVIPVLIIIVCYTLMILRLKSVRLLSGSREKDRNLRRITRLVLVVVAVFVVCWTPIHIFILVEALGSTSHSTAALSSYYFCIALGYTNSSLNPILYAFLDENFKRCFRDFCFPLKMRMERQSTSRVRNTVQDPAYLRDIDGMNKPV
UniProt P35372, whole entry: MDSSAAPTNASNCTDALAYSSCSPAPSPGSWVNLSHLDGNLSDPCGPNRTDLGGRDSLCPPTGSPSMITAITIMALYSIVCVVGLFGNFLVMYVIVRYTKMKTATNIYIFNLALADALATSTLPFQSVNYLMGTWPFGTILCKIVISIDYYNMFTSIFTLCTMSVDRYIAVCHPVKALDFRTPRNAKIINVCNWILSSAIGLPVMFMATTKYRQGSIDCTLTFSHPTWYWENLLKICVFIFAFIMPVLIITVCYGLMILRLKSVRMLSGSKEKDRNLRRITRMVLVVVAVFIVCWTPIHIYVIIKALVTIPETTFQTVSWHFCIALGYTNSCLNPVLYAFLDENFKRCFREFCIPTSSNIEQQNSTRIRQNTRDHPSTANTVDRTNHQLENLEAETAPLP

[2] = molecular target: μ opiate receptor (Homo sapiens, UniProt P35372); assay: Opiate receptor binding affinity, μ; settings: read-out: Ki (nM) μ
Description: as §1, §2

Row | Compound | Ki [1] [nM] | Ki [2] [nM]
1 | O=C1Cc2ccccc2N1C1CCN(C2CCC3CCCCC3C2)CC1 (stereo not drawn) | 52.1 | 10.6
2 | CC1(C)C2CCC(CN3CCC(N4C(=O)Cc5ccccc54)CC3)C1C2 (stereo not drawn) | 175 | 27.8
3 | CC(c1ccc2c(c1)Cc1ccccc1-2)N1CCC(N2C(=O)Cc3ccccc32)CC1 (stereo not drawn) | 74.4 | 20.2
4 | O=C1Cc2ccccc2N1C1CCN(CC2CCCCCCC2)CC1 | 229 | 14.4
5 | O=C1Cc2ccccc2N1C1CCN(C2CCCc3ccccc32)CC1 (stereo not drawn) | 21.5 | 21.2
6 | O=C1Cc2ccccc2N1C1CCN(C2CCCCCCC2)CC1 | 42.7 | 29.9

Source: US20050228023A1, “Agonist and antagonist ligands of the nociceptin receptor” (published 2005)
